# Experimental data reported in PMC9298352, “Design, Synthesis and Structural Analysis of Glucocerebrosidase Imaging Agents” (Chemistry (Weinheim an Der Bergstrasse, Germany), 2021).
# Columns and labels:
# [1] = target: T1, recombinant human GAA (rhGAA, Myozyme) (Homo sapiens, UniProt P10253); test: In vitro apparent IC50, fluorogenic substrate assay on rhGAA; assay type: biochemical; conditions: selectivity for GBA
# T1 construct: purchased Sanofi Genzyme (Cambridge, MA, USA)
# Procedure: (§1) All assays were performed in duplicate sets, each with 3 technical replicates at each inhibitor concentration. DMSO concentration was kept at 0.5 %–1 % (v/v) in all assays during incubation with compounds. In vitro apparent IC50 values were calculated by fitting data with [inhibitor] vs. response‐various slope (four parameters) function using Graphpad Prism 7.0 software. Average values and standard deviations were calculated from the two sets.
# [2] = target: T2, human GBA2 (from lysates of GBA2 overexpressed cells) (Homo sapiens, UniProt Q9HCG7); test: In vitro apparent IC50, fluorogenic substrate assay on GBA2 in lysates of overexpressing cells; assay type: biochemical; conditions: selectivity for GBA
# T2 construct: expressed in transfected cells; host or cells: HEK293T
# T2 sequence (Q9HCG7 1-927): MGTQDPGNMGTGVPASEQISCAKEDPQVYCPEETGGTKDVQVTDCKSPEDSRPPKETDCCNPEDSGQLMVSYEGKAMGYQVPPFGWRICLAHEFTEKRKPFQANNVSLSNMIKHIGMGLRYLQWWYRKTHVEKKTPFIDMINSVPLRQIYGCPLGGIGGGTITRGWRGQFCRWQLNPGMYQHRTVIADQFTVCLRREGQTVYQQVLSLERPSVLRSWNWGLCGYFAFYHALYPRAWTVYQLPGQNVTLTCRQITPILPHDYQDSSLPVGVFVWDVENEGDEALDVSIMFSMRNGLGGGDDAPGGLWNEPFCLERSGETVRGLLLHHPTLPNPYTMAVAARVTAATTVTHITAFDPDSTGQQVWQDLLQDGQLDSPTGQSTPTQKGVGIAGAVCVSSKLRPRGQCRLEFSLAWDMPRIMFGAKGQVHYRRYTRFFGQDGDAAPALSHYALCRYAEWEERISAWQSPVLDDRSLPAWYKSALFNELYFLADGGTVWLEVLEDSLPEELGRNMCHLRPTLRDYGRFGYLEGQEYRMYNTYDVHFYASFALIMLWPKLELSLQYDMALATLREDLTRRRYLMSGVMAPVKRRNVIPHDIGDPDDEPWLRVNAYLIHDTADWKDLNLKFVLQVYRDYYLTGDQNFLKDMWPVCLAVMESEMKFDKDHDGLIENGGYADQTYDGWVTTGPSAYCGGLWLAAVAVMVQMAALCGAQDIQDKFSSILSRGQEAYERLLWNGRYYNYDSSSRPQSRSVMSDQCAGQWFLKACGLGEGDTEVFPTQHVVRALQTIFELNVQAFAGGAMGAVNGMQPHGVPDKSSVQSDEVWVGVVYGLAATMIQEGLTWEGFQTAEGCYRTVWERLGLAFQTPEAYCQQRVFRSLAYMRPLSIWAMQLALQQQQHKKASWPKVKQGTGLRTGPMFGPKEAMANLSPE
# Procedure: as §1
smiles,measurement,setting,value
CCCCCCCCN1[C@@H]2[C@H](Cn3cc(CNC(=O)CCCCC[N+]4=C(/C=C/C=C/C=C5/N(C)c6ccccc6C5(C)C)C(C)(C)c5ccccc54)nn3)[C@@H](O)[C@H](O)[C@@H](O)[C@@H]21 (some centres unmarked) [ABP 6],IC50 ratio GAA/GBA,[1],> 10^3
same,IC50 ratio GBA2/GBA,[2],> 10^3
